Experimental data as given in ChEMBL document CHEMBL1135241 (Bioorg Med Chem Lett, 2002).

Protein sequences, listed by entry. Tags and fused reporters are not part of them.
UniProt P32300, whole entry: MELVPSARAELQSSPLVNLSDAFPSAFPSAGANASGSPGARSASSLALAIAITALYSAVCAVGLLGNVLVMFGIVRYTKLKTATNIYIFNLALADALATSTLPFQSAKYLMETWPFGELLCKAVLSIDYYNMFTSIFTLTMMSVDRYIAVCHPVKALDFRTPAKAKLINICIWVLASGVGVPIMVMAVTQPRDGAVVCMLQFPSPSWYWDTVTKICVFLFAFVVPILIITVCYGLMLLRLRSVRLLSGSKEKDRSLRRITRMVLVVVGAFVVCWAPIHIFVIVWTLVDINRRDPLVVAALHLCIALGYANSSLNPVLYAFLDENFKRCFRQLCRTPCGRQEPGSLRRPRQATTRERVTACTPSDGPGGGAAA

Molecular target: Delta-type opioid receptor (Mus musculus, UniProt P32300)
Assay: In vitro biological activity by electrically induced smooth muscle contractions in mouse vas deferens (Opioid receptor delta 1); inhibitory concentration was evaluated
Type: functional

CC(C)[C@H](NC(=O)[C@H](CC(=O)O)NC(=O)[C@H](Cc1ccccc1)NC(=O)[C@@H](C)NC(=O)[C@@H](N)Cc1ccc(O)cc1)C(=O)N[C@H](C(=O)NCC(N)=O)C(C)C [DELTORPHIN C]
IC50: 0.582 nM
